Test results taken from patent US5192799A, “Coumaran group containing amine compounds and their acid addition salts and quaternary ammonium salts and the use thereof as anti arrhythmic agents and as psychotropic agents” (Mitsui Petrochemical Industries, Ltd., priority 1987, dated 1993).

Experiment: in vivo
Settings: mouse
Description: By using male ddY-strain 5-week old mice (3 to 4 per group), the compounds of general formula (1) were each administered orally or intraperitoneally as a solution in saline or as a suspension in methyl cellulose, and 24 hours after the administration, the toxicity of the compounds was evaluated.

CCCCCCC[N+](CC)(CC)CCCCc1ccc(Cl)cc1 [Clofilium, reference compound]
LD50 at 24 h (ip): ~30 mg/kg
LD50 at 24 h (po): > 1000 mg/kg
